Data on ten compounds can be found in patent EP4834882A1, “ALDOSTERONE SYNTHETASE INHIBITOR, AND PREPARATION METHOD THEREFOR AND USE THEREOF” (dated 2026).

Protein sequences, listed by entry. Tags and fused reporters are not part of them. Residues count along the entry.
UniProt P19099, 25-503 limits assumed: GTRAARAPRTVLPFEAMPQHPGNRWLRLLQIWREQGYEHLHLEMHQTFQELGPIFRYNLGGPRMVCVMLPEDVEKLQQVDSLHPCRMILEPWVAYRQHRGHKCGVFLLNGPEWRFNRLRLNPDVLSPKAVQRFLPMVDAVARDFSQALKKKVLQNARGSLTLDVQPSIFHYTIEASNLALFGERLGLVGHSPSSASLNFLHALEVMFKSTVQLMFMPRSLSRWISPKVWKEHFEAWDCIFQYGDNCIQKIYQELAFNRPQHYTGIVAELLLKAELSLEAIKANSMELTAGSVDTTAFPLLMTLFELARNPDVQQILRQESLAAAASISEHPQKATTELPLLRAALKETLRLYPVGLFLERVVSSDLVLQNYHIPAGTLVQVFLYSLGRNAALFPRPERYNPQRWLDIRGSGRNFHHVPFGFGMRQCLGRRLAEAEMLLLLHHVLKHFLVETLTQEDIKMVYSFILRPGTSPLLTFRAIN
UniProt P15538, 25-503 limits assumed: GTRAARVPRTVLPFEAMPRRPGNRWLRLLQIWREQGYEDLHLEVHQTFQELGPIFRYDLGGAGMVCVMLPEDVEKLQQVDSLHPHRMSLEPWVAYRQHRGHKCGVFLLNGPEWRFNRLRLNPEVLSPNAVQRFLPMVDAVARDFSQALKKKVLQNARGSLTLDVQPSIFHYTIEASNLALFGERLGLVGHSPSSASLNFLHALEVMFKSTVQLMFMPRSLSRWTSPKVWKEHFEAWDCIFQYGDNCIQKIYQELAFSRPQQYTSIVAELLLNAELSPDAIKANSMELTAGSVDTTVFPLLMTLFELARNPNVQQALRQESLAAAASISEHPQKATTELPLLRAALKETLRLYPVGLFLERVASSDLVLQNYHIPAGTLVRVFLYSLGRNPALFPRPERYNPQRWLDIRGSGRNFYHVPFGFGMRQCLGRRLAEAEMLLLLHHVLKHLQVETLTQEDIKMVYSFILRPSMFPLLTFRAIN

One test has as its target human CYP11B2 (Homo sapiens, UniProt P19099). Kind of test: H295R steroidogenesis assay, inhibition of aldosterone synthase. To be noted: read-out: CYP11B2 Ki; NCI-H295R cells, 10 µM deoxycorticosterone, 48 h, aldosterone by LC-MS; Ki = IC50/(1 + [S]/Km). The protocol: (§1) The H295R steroidogenesis assay system was used in the present invention for testing the enzyme activities of human CYP11B1, human CYP11B2, etc. The in vitro H295R steroidogenesis assay system utilizes a human adrenocortical carcinoma cell line (NCI-H295R cells) as a Tier 2 "in vitro assay that provides mechanistic data" for screening and prioritization purposes. The development and standardization of this method were performed in a multi-step process for screening chemical effects on steroidogenesis, and the H295R assay method has been optimized and validated according to the OECD Test Guideline (Test Guideline No. 456 H295R Steroidogenesis Assay).
(§2) NCI-H295R cells were purchased from ATCC. After initiating culture from the original ATCC batch, NCI-H295R cells were cultured for five passages (i.e., undergo four rounds of cell divisions), and then the cells at passage five were cryopreserved and stored in liquid nitrogen.
(§3) H295R cells were cultured in a cell culture incubator at 37°C and 5% CO2, and the medium was replaced 2-3 times per week. Cells were passaged when they reached approximately 85-90% confluency. The medium was aspirated, and the cells were washed three times with DPBS (Ca^2+ and Mg^2+ -free), and then trypsin was added to digest for 1-3 min. The digestion was terminated by adding 3 mL of culture medium. The cells were then dislodged by pipetting, and any remaining cells were rinsed off with 1 mL of medium. The cell suspension was pooled and transferred to a 15 mL centrifuge tube. After centrifuging at room temperature and 800 rpm for 5 min, the supernatant was discarded, the pellet was resuspended in 3 mL of medium, and the cell suspension was counted. The edge wells of a 96-well plate are left empty, and the remaining wells are seeded with 50,000 cells per well in 100 µL of 10% FBS DMEM/F12 (1:1) basal medium..After overnight recovery, the medium was replaced with basal medium containing 10 µM Forskolin (150 µL per well), and the cells were incubated for 48 h. After 48 h, the medium was replaced with basal medium containing 10 µM deoxycorticosterone. The compound was dissolved in DMSO to prepare a 100 mM stock solution. Starting from 100 mM, the compounds are subjected to 3-fold serial dilutions in DMSO, resulting in 10 concentration points. These 10 concentration points was then diluted 10-fold with blank DMEM:F12 (1:1) medium, resulting in a starting concentration of 10 mM. An aliquot of 1.5 µL of each compound concentration was added to the cells, achieving a final DMSO concentration of 0.1% and a starting compound concentration of 100 µM. After incubation for 48 h, 40 µL of cell supernatant was collected and analyzed for the levels of aldosterone and cortisol by LC-MS.
(§4) The inhibition rate was calculated using the following formula: [formula]
(§5) Using the logarithm of the compound concentration as the x-axis and the inhibition rate as the y-axis. Nonlinear regression curve fitting was performed using Graphpad 9.0 to calculate the IC50 value (Y=Bottom+(Top - Bottom)/(1+ 10^((LogIC50 - X)×HillSlope))), Ki = IC50/(1 + [S]/Km), and the test results are shown in Table 1. Unless otherwise specified, competitive inhibition is assumed for all proteases. Selectivity = CYP11B1 Ki (nM)/CYP11B2 Ki (nM); wherein, A represents a selectivity value between 0 and 50, B represents a selectivity value between 51 and 100, C represents a selectivity value between 101 and 150, and D represents a selectivity value above 151. Table 1: Inhibitory effect of compounds on CYP11B2

Another test addresses human CYP11B1 (Homo sapiens, UniProt P15538). Kind of test: H295R steroidogenesis assay, selectivity CYP11B1 versus CYP11B2. The conditions noted are these: Selectivity = CYP11B1 Ki (nM)/CYP11B2 Ki (nM); NCI-H295R cells. The method, then: as §1, §2, §3, §4, §5

pKi: −log10 of the molar value.

Consider `N#Cc1ccc2cc(-c3cncc4c3CCCC4O)ccc2n1` (racemic), for which, on human CYP11B2, the pKi (usually −log10 of the Ki, conventionally taken in molar units) is more than 7.30. The Selectivity entry on human CYP11B1 is “A (A represents a selectivity value between 0 and 50)”.

Regarding `[2H]c1ccc2cc(-c3cncc4c3CCC[C@H]4NC(=O)CC)ccc2n1`, at human CYP11B2, the pKi was more than 7.30. Besides, the Selectivity entry on human CYP11B1 is “A (A represents a selectivity value between 0 and 50)”.

For `CCC(=O)N[C@@H]1CCCc2c(-c3ccc4nccc(C)c4c3)cncc21`, the negative logarithm of the Ki (pKi) at human CYP11B2 is more than 7.30. The Selectivity entry on human CYP11B1 is “A (A represents a selectivity value between 0 and 50)”.

For `CCC(=O)N[C@@H]1CCCc2c(-c3ccc4cnccc4c3)cncc21`, the pKi on human CYP11B2 was more than 7.30. In addition, the Selectivity result on human CYP11B1 was “B (B represents a selectivity value between 51 and 100)”.

`CCC(=O)N[C@@H]1CCCc2c(-c3ccc4onc(C)c4c3)cncc21`: on human CYP11B2, the pKi is more than 7.30. Moreover, the Selectivity result at human CYP11B1 was “A (A represents a selectivity value between 0 and 50)”.

For the compound `CCC(=O)N[C@@H]1CCCc2c(-c3ccc4ncc(F)cc4c3)cncc21`, the pKi at human CYP11B2 is more than 7.30. In addition, the Selectivity entry at human CYP11B1 is “A (A represents a selectivity value between 0 and 50)”.

For `OC1CCCc2c(-c3ccc4ncccc4c3)cncc21` (centres unmarked), the pKi on human CYP11B2 was more than 7.30. Further, at human CYP11B1, the Selectivity result is “A (A represents a selectivity value between 0 and 50)”.

On to `CCC(=O)N[C@@H]1CCCc2c(-c3ccc4ncccc4c3F)cncc21`, for which the pKi at human CYP11B2 was more than 7.30. The Selectivity result on human CYP11B1 is “A (A represents a selectivity value between 0 and 50)”.

Consider `CCC(=O)N[C@@H]1CCCc2c(-c3ccc4cc(C#N)ccc4c3)cncc21`, for which the negative logarithm of the Ki (pKi) at human CYP11B2 was more than 7.30. For the same compound, the Selectivity entry at human CYP11B1 was “A (A represents a selectivity value between 0 and 50)”.

Take `CCC(=O)N[C@@H]1CCCc2c(-c3cc(F)c4ncccc4c3)cncc21`: on human CYP11B2, the pKi is more than 7.30. At human CYP11B1, the Selectivity entry is “A (A represents a selectivity value between 0 and 50)”.
